In patent publication US5763625A, “Synthesis and use of β-lapachone analogs” (priority 1995, dated 1998):

Experiments:
[1] = test system: unirradiated U1-Mel cells
Topo I = target: T1, Topo I (Cricetulus griseus, UniProt Q07050); type: biochemical, Chinese hamster
T1 construct: Extracts from unirradiated CHEF/18 cells and its neoplastic derivatives; endogenous in cells; host or cells: CHEF/18 cells and neoplastic derivatives 21-2M3 and T30-4 (extracts)
T1 sequence (Q07050 1-767): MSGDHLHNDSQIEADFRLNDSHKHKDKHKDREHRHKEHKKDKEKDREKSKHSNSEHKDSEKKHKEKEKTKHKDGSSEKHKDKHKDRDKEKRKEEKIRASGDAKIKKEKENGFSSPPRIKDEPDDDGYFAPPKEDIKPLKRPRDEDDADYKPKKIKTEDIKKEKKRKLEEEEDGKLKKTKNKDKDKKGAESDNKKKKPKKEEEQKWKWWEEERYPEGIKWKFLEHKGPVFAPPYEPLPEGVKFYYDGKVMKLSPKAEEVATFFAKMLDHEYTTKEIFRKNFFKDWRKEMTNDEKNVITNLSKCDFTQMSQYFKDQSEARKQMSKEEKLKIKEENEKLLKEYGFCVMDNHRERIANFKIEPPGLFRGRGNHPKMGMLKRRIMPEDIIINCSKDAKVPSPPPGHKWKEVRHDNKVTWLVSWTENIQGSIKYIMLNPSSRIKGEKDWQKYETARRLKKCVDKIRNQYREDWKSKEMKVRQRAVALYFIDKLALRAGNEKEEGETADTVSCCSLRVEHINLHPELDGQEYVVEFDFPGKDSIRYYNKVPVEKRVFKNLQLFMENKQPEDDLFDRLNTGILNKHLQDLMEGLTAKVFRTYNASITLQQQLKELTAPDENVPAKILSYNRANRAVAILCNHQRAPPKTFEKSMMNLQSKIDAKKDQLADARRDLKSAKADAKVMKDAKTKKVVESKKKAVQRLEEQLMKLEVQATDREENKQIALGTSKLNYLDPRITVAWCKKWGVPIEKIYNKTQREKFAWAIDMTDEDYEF

purified human Topo I = target: T2, purified human Topo I (Homo sapiens, UniProt P11387); test: Topo I inhibition, DNA unwinding assay; type: biochemical
T2 sequence (P11387 1-765): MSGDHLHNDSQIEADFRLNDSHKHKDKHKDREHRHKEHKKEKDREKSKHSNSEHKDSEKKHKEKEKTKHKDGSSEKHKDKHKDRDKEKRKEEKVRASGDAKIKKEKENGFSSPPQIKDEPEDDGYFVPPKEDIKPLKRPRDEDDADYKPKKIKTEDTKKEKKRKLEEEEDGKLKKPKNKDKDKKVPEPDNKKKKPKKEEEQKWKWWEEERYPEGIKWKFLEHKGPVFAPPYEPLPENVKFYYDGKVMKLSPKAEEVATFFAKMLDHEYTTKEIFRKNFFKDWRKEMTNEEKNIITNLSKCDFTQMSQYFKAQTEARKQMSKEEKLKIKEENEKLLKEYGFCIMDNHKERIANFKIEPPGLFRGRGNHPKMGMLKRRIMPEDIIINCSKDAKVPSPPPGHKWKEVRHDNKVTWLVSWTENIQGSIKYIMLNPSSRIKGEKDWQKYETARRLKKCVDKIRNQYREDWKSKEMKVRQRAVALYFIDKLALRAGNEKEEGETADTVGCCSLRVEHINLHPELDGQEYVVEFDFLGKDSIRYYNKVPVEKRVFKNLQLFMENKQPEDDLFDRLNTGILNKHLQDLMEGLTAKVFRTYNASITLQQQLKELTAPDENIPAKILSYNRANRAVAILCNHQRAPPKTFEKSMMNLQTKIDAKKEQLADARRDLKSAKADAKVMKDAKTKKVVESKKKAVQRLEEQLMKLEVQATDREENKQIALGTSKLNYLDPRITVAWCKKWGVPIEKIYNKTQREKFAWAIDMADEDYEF

C=CCC1CC2=C(OC1(C)C)c1ccccc1C(=O)C2=O (centres unmarked)
cytotoxicity of longer exposure times [1]: did not enhance cytotoxicity
effect on survival of unirradiated cells [1]: did not significantly effect survival
toxicity compared with similar treatments with β-lapachone [1]: less toxic

COc1cc(NS(C)(=O)=O)ccc1Nc1c2ccccc2nc2ccccc12 [m-AMSA]
Topo I enzymatic activity in presence of Topo II inhibitor (Topo I): Enzymatic activity was observed

CC(C)=CCC1=C(O)C(=O)c2ccccc2C1=O [lapachol]
inhibition of Topo I (purified human Topo I): did not inhibit Topo I
